Measurements published in ChEMBL document CHEMBL1136518, “Potent, selective inhibitors of protein tyrosine phosphatase 1B” (Bioorg Med Chem Lett, 2003).

Target: T1, Tyrosine-protein phosphatase non-receptor type 2 (Homo sapiens, UniProt P17706)
T1 sequence (P17706 whole entry): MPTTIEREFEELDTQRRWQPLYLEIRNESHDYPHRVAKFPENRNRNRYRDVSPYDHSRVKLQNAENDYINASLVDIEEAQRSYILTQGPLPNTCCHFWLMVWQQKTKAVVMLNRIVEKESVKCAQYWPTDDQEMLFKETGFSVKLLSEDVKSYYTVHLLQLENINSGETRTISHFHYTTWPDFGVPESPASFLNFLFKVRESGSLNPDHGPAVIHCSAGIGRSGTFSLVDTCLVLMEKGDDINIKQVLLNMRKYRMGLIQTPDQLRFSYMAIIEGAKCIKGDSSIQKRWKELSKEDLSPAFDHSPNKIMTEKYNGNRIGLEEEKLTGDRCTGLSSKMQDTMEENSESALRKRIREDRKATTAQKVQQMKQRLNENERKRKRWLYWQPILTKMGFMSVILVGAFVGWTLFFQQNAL
Test: Inhibitory activity tested against T-cell Protein tyrosine phosphatase 2 (TCPTP)

CCc1cc(CC(NC(C)=O)C(=O)NCCCCC(=O)N[C@H](CCSC)C(=O)O)ccc1N(C(=O)C(=O)O)c1ccccc1C(=O)O (stereo partly specified)
Ki: 1000 nM
